Literature values as cited in patent EP1655608A1, “CFTR as a component of an autophagy signaling pathway, applications thereof to autophagic diseases, and determination of cystic fibrosis as an autophagic disease” (priority 2004, dated 2006).

Test system: Sertoli cell
Conditions: reported, ref (84); cited from earlier work

Substance: biphenol A
- Sertoli cell vacuolation in vivo: reported to promote Sertoli cell vacuolation
